Consider 19 compounds from patent publication US11077120B2, “Prostaglandin receptor EP2 antagonists, derivatives, compositions, and uses related thereto” (Emory University, priority 2014, dated 2021).

By UniProt entry, the sequences of proteins in these tests, tags left out.
UniProt Q13258, whole entry: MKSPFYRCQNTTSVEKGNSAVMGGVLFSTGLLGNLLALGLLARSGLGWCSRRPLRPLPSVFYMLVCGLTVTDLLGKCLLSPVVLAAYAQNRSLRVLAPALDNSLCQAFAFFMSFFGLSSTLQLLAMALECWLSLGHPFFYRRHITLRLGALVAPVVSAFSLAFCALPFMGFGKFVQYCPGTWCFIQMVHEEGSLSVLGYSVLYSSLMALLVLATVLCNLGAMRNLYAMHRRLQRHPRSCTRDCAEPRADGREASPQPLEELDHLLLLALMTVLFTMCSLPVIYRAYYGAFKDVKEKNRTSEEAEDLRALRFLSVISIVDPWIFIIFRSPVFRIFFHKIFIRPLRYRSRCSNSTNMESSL
UniProt P43119, whole entry: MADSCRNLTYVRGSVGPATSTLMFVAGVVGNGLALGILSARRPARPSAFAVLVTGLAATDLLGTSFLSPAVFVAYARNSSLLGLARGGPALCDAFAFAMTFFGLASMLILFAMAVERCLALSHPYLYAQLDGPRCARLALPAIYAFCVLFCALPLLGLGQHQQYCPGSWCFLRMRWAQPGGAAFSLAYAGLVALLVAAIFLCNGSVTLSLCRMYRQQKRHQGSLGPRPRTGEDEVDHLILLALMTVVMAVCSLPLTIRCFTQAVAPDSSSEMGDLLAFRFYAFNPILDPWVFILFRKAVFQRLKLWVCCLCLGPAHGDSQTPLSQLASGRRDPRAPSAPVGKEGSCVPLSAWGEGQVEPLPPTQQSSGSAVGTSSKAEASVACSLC
UniProt P43116, whole entry: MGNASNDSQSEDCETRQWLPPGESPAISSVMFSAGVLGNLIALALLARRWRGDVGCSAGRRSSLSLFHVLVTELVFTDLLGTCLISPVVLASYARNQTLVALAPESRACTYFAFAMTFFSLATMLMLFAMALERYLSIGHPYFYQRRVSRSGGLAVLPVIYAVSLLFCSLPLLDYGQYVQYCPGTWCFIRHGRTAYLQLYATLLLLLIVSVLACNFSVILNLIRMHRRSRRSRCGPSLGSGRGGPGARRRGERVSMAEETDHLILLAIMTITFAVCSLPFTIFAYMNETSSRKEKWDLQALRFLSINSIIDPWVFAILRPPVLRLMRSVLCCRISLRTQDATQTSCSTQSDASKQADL

Where two headings read alike, the source gives them in different places.

One data set deals with human DP1 receptors (Homo sapiens, UniProt Q13258). The data set is described as follows: cell-based cAMP TR-FRET assay, DP1 (agonist BW245C). The following applies: read-out: DP1 KB; Table 3; single compound concentration of 10 μM.
For the next data set, the target named is human IP receptors (Homo sapiens, UniProt P43119). The experiment in a line: cell-based cAMP TR-FRET assay, IP (agonist iloprost). The following applies: read-out: KB IP; Table 4. (Time-resolved FRET reads energy transfer from a long-lived donor to a nearby acceptor.)
Data set [1] can be described thus: liver microsomal stability, human. For orientation: Liver microsomes are vesicles of endoplasmic reticulum, rich in cytochrome P450 enzymes.
Data set [2] is described as follows: liver microsomal stability, mouse.
A further data set addresses human EP2 receptors (Homo sapiens, UniProt P43116). The data set is described as follows: cell-based cAMP TR-FRET assay, rightward shift of PGE2 concentration response curve (Schild KB), EP2.
The mark [3] stands for this setting: read-out: EP2 KB, Table 3, Schild KB from single concentration 1 μM.

For the compound `COc1cc(/C=C/C(=O)NCCc2c(C)[nH]c3ccccc23)cc(OC)c1OC`, the Kb turned out to be 110 nM at human DP1 receptors and 12700 nM on human IP receptors. For the same compound, the “% of Parent Compound Remaining at 60 min vs. T = 0 min, Human Liver Microsomes” value stood at 0.8% in data set [1] (1 μM) and 5.8% in data set [1] (10 μM). In addition, the figures for the “% of Parent Compound Remaining at 60 min vs. T = 0 min, Mouse Liver Microsomes” value in data set [2] (1 μM) and in data set [2] (10 μM) were 0% and 0.2%, respectively.

For the compound `COc1cc(/C=C/C(=O)NCCn2c(C(F)(F)F)cc3ccccc32)cc(OC)c1OCCO`, the Kb at human IP receptors is 95900 nM.

For `COC(=O)[C@@H](Cc1c(C)[nH]c2ccccc12)NC(=O)/C=C/c1cc(OC)c(OC)c(OC)c1`, on human EP2 receptors (setting [3]), the Kb is > 1000 nM.

`Cc1cc(/C=C/C(=O)NCCn2c(C)cc3ccccc32)cc(C)c1F`: the Kb at human DP1 receptors worked out at 210 nM; at human IP receptors, 22500 nM. The “% of Parent Compound Remaining at 60 min vs. T = 0 min, Human Liver Microsomes” value in data set [1] (1 μM) turned out to be 20.9%; in data set [1] (10 μM) it was 24.0%. Besides, the results for the “% of Parent Compound Remaining at 60 min vs. T = 0 min, Mouse Liver Microsomes” value in data set [2] (1 μM) and in data set [2] (10 μM) were 18.3% and 13.0%, respectively.

As for `COc1cc(/C=C/C(=O)NCc2c(C)n(C)c3ccccc23)cc(OC)c1OC`, the Kb on human EP2 receptors (setting [3]) is > 1000 nM.

For `COc1cc(/C=C/C(=O)NCCn2c(C)cc3ccccc32)cc(OC)c1OCCO`, at human EP2 receptors (Schild regression analysis), the “mechanism of antagonism of EP2” value is recorded as “competitive”. In addition, the Kb was 3.7 nM at human EP2 receptors (setting [3]); 3.7 nM on human EP2 receptors (read-out: KB EP2, Table 4); 19.9 nM on human DP1 receptors; 85000 nM at human IP receptors.

Regarding `COc1ccc(CCNC(=O)/C=C/c2cc(OC)c(OC)c(OC)c2)cc1OC`, the Kb on human EP2 receptors (setting [3]) is > 1000 nM.

For `COc1cc(/C=C/C(=O)NCc2nn(C)c3ccccc23)cc(OC)c1OC`, the Kb on human EP2 receptors (setting [3]) was > 1000 nM.

`COc1cc(/C=C/C(=O)OCCn2c(C)cc3ccccc32)cc(OC)c1OC`: at human EP2 receptors (setting [3]), the Kb was found to be 340 nM.

Take `COc1cc(C(N)CC(=O)NCCn2c(C)cc3ccccc32)cc(OC)c1OC` (stereo not drawn): on human EP2 receptors (setting [3]), the Kb was determined as 410 nM.

In the case of `COc1ccc(CCCNC(=O)/C=C/c2cc(OC)c(OC)c(OC)c2)cc1`, the Kb at human EP2 receptors (setting [3]) worked out at 667 nM.

For `COc1ccc(/C=C/C(=O)NCCc2c(C)[nH]c3ccccc23)cc1OC`, the Kb turned out to be 4.9 nM at human EP2 receptors (setting [3]); 4.9 nM on human EP2 receptors (read-out: KB EP2, Table 4); 255 nM at human DP1 receptors; 42700 nM on human IP receptors. Moreover, the “% of Parent Compound Remaining at 60 min vs. T = 0 min, Human Liver Microsomes” value in data set [1] (1 μM) came out at 12.4%; in data set [1] (10 μM), 18.6%. For the same compound, the “% of Parent Compound Remaining at 60 min vs. T = 0 min, Mouse Liver Microsomes” value in data set [2] (1 μM) is given as 0.2%; in data set [2] (10 μM), 0.1%.

For the compound `Cc1cc(/C=C/C(=O)NCCc2c(C)[nH]c3ccccc23)cc(C)c1F`, the Kb on human EP2 receptors (setting [3]) was 11.3 nM; at human EP2 receptors (read-out: KB EP2, Table 4) it was 11.3 nM; on human DP1 receptors, 900 nM; at human IP receptors, 21700 nM. For the same compound, the “% of Parent Compound Remaining at 60 min vs. T = 0 min, Human Liver Microsomes” value in data set [1] (1 μM) is given as 0.4%; in data set [1] (10 μM) it was 21.4%. Moreover, the “% of Parent Compound Remaining at 60 min vs. T = 0 min, Mouse Liver Microsomes” value in data set [2] (1 μM) turned out to be 0.1%; in data set [2] (10 μM), 51.7%.

For `COC(=O)[C@H](Cc1c(C)[nH]c2ccccc12)NC(=O)/C=C/c1cc(OC)c(OC)c(OC)c1`, the Kb at human EP2 receptors (setting [3]) is > 1000 nM.

`COc1cc(/C=C/C(=O)OCCN2CCCCC2C)cc(OC)c1OC` (stereo not drawn): the “EP2 activity (in words)” value on human EP2 receptors was “complete loss of activity”. For the same compound, the Kb on human EP2 receptors (setting [3]) is > 1000 nM.

`COc1cc(/C=C/C(=O)NCCN2C(=O)Cc3ccccc32)cc(OC)c1OC`: on human EP2 receptors (setting [3]), the Kb is > 1000 nM.

Turning to `COc1ccc(CCNC(=O)CCn2c(C)cc3ccccc32)cc1OC`, at human EP2 receptors (setting [3]), the Kb was > 1000 nM.

As for `COc1cc(/C=C/C(=O)NCCc2c(C)oc3ccccc23)cc(OC)c1OC`, at human EP2 receptors (setting [3]), the Kb was found to be 333 nM.

Turning to `Cc1cc2ccccc2n1CCNC(=O)C1CC1c1ccc(F)cc1` (stereo not drawn), the Kb on human EP2 receptors (setting [3]) was determined as 236 nM.
